ChEMBL document CHEMBL3233011, “Structural modifications of CH(OH)-DAPYs as new HIV-1 non-nucleoside reverse transcriptase inhibitors” (Bioorg Med Chem, 2014)
pIC50: −log10 of the molar value.

Molecular target: Human immunodeficiency virus type 1 reverse transcriptase (Human immunodeficiency virus 1, UniProt Q72547)
Experiment: Inhibition of wild-type HIV1 reverse transcriptase p66/p51 after 40 mins by spectrophotometry

pIC50: 7.80
Compound: Cc1cc(C#N)cc(C)c1Oc1nc(Nc2ccc(C#N)cc2)nc(N)c1Br [ETRAVIRINE]
